How the values were obtained:
[1] = target: (Δ1-28) H4 nucleosome (mononucleosome with FLAG-HA-tagged tailless human H4 lacking the first 28 amino acids) (human; human (293T cells)) (UniProt P62805); assay: MudPIT, co-purification
[2] = target: Wild type H4 nucleosome (mononucleosome with FLAG-HA-tagged wild type human H4) (human; human (293T cells)) (UniProt P62805); assay: MudPIT, co-purification

amino acid coverage [1] [%] | peptide count [1] [peptides] | amino acid coverage [2] [%] | peptide count [2] [peptides] | Substance
23.7 | 8 | 29 | 11 | DNA (cytosine-5-)-methyltransferase 3 alpha (from UniProt Q9Y6K1 1-912) (enzyme)
62.7 | 5 | 84.6 | 7 | Histone H4 (from UniProt P62805 2-103)
30.6 | 11 | 31.8 | 12 | DNA (cytosine-5-)-methyltransferase 3 beta (from UniProt Q9UBC3 1-853) (enzyme)

From patent US20130345115A1
